Reference: paper PMC6968775, “Assessment of contribution of BCRP to intestinal absorption of various drugs using portal‐systemic blood concentration difference model in mice” (Pharmacology Research & Perspectives, 2020)
Like-named read-outs stand apart in the source and are kept apart here.

Key:
[1] = Mdr1a/1b(−/−) mice

O=C(O)c1cn(C2CC2)c2cc(N3CCNCC3)c(F)cc2c1=O [ciprofloxacin, Ciprofloxacin]
k a, wt (Table 5 summary, WT mice, oral administration): 1.63 | k a (wild‐type mice, p.o. (ciprofloxacin 1, nitrofurantoin 2, topotecan 1, sulfasalazine 5 mg/kg)): 1.63 h⁻¹ | k a ([1]; p.o. (ciprofloxacin 1, nitrofurantoin 2, topotecan 1, sulfasalazine 5 mg/kg)): 2.18 h⁻¹ | k a, P‐gp ([1]; Table 5 summary, oral administration): 2.18
